## scFv variants of Ab-14 (heavy chain) against a SARS-CoV-2 spike peptide

All variants were tested on one target, the spike HR2 peptide PDVDLGDISGINAS (SARS-CoV-2).

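The parent was found by panning a naive human phage display library on the peptide. Designed CDR sequences, proposed from the first random library and measured here. Their group label is 14H_GPLM_Gibbs (GPLM: also part of the Gaussian process libraries; Gibbs: Gibbs sampling; a sequence that several methods proposed may carry one label only). Affinity was read by AlphaSeq, a pooled yeast mating assay with surface-displayed partners. Pairs that bind mate more often; barcode pairs of the diploids are counted by sequencing. Read counts were normalised to the haploid input and turned into Kd by a linear fit to BCL2-family pairs of known affinity, for each replicate. Mating was done six times.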

Parent scFv Ab-14: VH joined to VL by three GGGGS repeats. Changes lie in the heavy chain CDRs alone.
VH: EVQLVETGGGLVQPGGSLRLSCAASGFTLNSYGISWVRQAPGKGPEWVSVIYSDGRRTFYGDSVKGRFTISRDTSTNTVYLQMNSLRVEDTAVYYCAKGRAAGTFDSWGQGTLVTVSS
VL: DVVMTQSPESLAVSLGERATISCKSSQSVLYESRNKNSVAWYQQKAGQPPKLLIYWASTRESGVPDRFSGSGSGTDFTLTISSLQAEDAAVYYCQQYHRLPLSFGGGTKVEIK

Variants are written as CDR1, CDR2 and CDR3 of the heavy chain (limits as in the source). Parent: GFTLNSYGIS, VIYSDGRRTFYGDSVK, GRAAGTFDS. Scale: log10 of Kd in nM, estimated from mating counts; low values are strong binders. Where no diploid with the target was found in that replicate, the entry reads "ND": below detection, most likely a poor binder, though not proof of it. The authors' rule: three or more of the six replicates give a measured affinity, fewer mean a poor binder.

CDR-H1,CDR-H2,CDR-H3,"log10 Kd, replicates",control signals
GFDLNTYGIS,VIYSDGRRTFYVDSVK,GQAAGTFDS,0.69 / 0.44 / 0.23 / 0.51 / 0.25 / 0.13,1 of 18 (2.40)
GFELNEYGIS,VIYSDGRRTFYGDSVK,GREAGTFDS,0.43 / -0.14 / 0.64 / -0.01 / 0.36 / 0.31,0 of 18
GFVLNSYGIS,VIYADGRRTFYGDSVK,GEAAGTFDS,ND / 1.52 / ND / 2.53 / 1.58 / 1.79,0 of 18
SFDLNSYGIS,VIYSDGRRTFYGDSVK,GRTAGTFDS,2.43 / ND / 1.60 / ND / ND / ND,0 of 18
GFTLNSYGIS,VIYSDGVRTFYSDSVK,GRQAGTFDS,0.66 / 0.29 / 0.31 / 0.55 / 0.40 / 0.57,2 of 18 (2.38)
GFTLESYGIS,VIYSDGKRTFYGDSVK,GRAAGTFDS,0.74 / 0.79 / 0.68 / 0.92 / 0.57 / 0.94,0 of 18
GFNLNSYGIS,VIYSDGRRTFYGDSVK,GKEAGTFDT,0.56 / 0.27 / 0.55 / -0.12 / 0.36 / 0.38,0 of 18
GFNLNSYGIS,VIYSDGRRTFYVDSVK,GKQAGTFDS,1.85 / 2.24 / ND / 1.09 / 1.68 / 1.83,0 of 18
GFELNSYGIS,VIYSDGRRTFYGDSVK,GKNAGTFDS,1.03 / 0.43 / 0.20 / 0.76 / 0.87 / 0.47,1 of 18 (2.63)
GFNLNSYGIS,VIYSDGQRTFYGDSVK,GRTAGTFDS,0.01 / 0.39 / 0.68 / 0.18 / 1.06 / 0.89,0 of 18
GFELNSYGIS,VIYSDGRRTFYGDSVK,GRMAGTFDT,ND / 1.60 / ND / 1.73 / 2.47 / ND,0 of 18
GFSLNSYGIS,VIYSDGRRTFYSDSVK,GRIAGTFDS,-0.24 / -0.22 / -0.41 / -0.39 / -0.22 / 0.39,0 of 18
GFTLESYGIS,VIYADGRRTFYGDSVK,GQAAGTFDK,0.46 / -0.27 / 0.12 / 0.13 / 0.26 / 1.42,1 of 18 (1.72)
KFDLNSYGIS,VIYSDGRRTFYGDSVK,GRNAGTFDS,0.95 / ND / ND / ND / 1.34 / 2.26,0 of 18
GFDLNSYGIS,VIYSDGRRTFYGDSVK,GQAAGTFDL,0.36 / -0.45 / 0.48 / -0.05 / -0.36 / 0.40,0 of 18
GFTLNSYGIS,VIYSDGVRTFYGDSVK,GEAAGTFDS,-0.64 / -0.40 / 0.02 / -0.78 / -0.80 / -0.55,0 of 18
GFSLNSYGIS,VIYSDGRRTFYIDNVK,GNAAGTFDS,ND / ND / ND / ND / 0.11 / ND,0 of 18
GFELNSYGIS,VIYSDGRRTFYIDSVK,GEAAGTFDS,0.76 / 0.53 / 0.67 / 1.24 / 0.58 / 0.64,0 of 18
GFDLNTYGIS,VIYSDGRRTFYIDSVK,GKAAGTFDS,0.29 / 0.30 / -0.05 / 0.07 / 0.01 / 0.25,0 of 18
GFTLNSYGIS,VIYSDGKRTFYSDSVK,GRVAGTFDT,ND / ND / ND / ND / ND / 1.80,0 of 18
GFSLNSYGIS,VIYSDGRRTFYIDSVK,GNTAGTFDS,0.53 / 1.06 / 1.05 / 1.14 / 0.71 / 0.96,0 of 18
GFDLNSYGIS,VIYSDGRRTFYKDSVK,GNAAGTFDA,0.28 / -0.10 / -0.06 / 0.22 / -0.06 / 0.13,0 of 18
GFELNSYGIS,VIYSDGKRTFYADSVK,GRTAGTFDS,-0.22 / -0.49 / -0.05 / 0.02 / -0.37 / 0.33,0 of 18
GFHLNSYGIS,VIYSDGRRTFYQDSVK,GEAAGTFDS,-1.23 / ND / -1.26 / -0.93 / ND / 0.45,0 of 18
GFSLNSYGIS,VIYSDGRRTFYIDSVK,GNAAGTFDT,-0.14 / 2.30 / 0.33 / 1.33 / -0.06 / 0.23,0 of 18
GFTLNSYGIS,VIYSDGVRTFYGDSVK,GQAAGTFDL,1.87 / 2.44 / ND / 1.17 / 1.68 / 2.52,0 of 18
GFGLNEYGIS,VIYSDGRRTFYGDSVK,GWTAGTFDS,1.02 / 0.47 / 0.18 / 0.02 / 0.01 / -0.51,0 of 18
KFSLNEYGIS,VIYSDGRRTFYGDSVK,GRTAGTFDK,1.60 / 2.39 / 1.76 / ND / ND / ND,1 of 18 (2.78)
KFQLNEYGIS,VIYSDGRRTFYGDSVK,GRTAGTFDS,0.95 / 0.41 / 1.66 / 0.76 / 0.67 / ND,0 of 18
GFDLNSYGIS,VIYSDGRRTFYADSVK,GRAAGTFDM,0.72 / 0.16 / 0.48 / 0.18 / 0.58 / 0.09,0 of 18
GFWLNDYGIS,VIYSDGRRTFYGDSVK,GQTAGTFDS,1.04 / 1.40 / 1.10 / 0.92 / 1.13 / 1.50,0 of 18
GFTLNSYGIS,VIYSDGKRTFYGDSVK,GQAAGTFDS,1.17 / 1.69 / 1.30 / 1.43 / 2.33 / 4.06,0 of 18
GFELNTYGIS,VIYSDGRRTAYGDSVK,GRTAGTFDS,0.81 / 0.77 / 1.42 / 1.82 / 1.24 / 1.03,0 of 18
GFELNNYGIS,VIYSDGRRTFYGDSVK,GQAAGTFDS,ND / ND / ND / ND / 0.27 / 0.60,0 of 18
GFDLNTYGIS,VIYSDGRRTFYADSVK,GNAAGTFDS,0.24 / -0.11 / 0.50 / 0.09 / 0.01 / 0.05,0 of 18
WFDLNSYGIS,VIYSDGRRTFYADSVK,GRTAGTFDS,0.27 / 0.14 / 0.12 / -0.05 / 0.23 / 0.38,0 of 18
GFNLNSYGIS,VIYSDGRRTFYADHVK,GRTAGTFDS,ND / ND / ND / ND / 1.84 / 2.04,1 of 18 (1.11)
GFSLNSYGIS,VIYSDGRRTFYSDSVK,GKIAGTFDS,0.31 / 0.65 / 0.30 / 0.16 / 0.22 / 0.59,0 of 18
GFELNSYGIS,VIYSDGRRTFYGDSVK,GKIAGTFDS,1.01 / 1.12 / 0.54 / 0.65 / 0.52 / 0.91,1 of 18 (1.73)
GFSLNSYGIS,VIYSDGRRTFYKDSVK,GQAAGTFDA,ND / ND / ND / ND / 0.01 / ND,0 of 18
GFNLNSYGIS,VIYSDGRRTFYGDNVK,GNAAGTFDS,0.69 / 0.59 / 0.46 / 0.65 / 0.59 / 1.12,1 of 18 (2.21)
GFELNSYGIS,VIYSDGRRTFYGDSVK,GTTAGTFDS,0.26 / 0.09 / 0.17 / -0.09 / -0.18 / 0.15,0 of 18
GFTLNSYGIS,VIYSDGKRTFYADSVK,GRQAGTFDS,0.60 / 0.41 / 0.43 / 0.54 / 0.17 / 0.82,1 of 18 (2.14)
GFVLNEYGIS,VIYSDGRRTFYGDSVK,GQTAGTFDS,0.75 / 0.04 / 0.82 / 0.65 / 0.30 / 0.34,1 of 18 (1.54)
GFTLESYGIS,VIYSDGRRTFYGDSVK,GQAAGTFDS,ND / ND / ND / 0.53 / 1.27 / ND,0 of 18

Top 6 of the variants detected in all replicates, tightest first:

CDR-H1	CDR-H2	CDR-H3	log10 Kd, replicates	control signals
GFTLNSYGIS	VIYSDGVRTFYGDSVK	GEAAGTFDS	-0.64 / -0.40 / 0.02 / -0.78 / -0.80 / -0.55	0 of 18
GFSLNSYGIS	VIYSDGRRTFYSDSVK	GRIAGTFDS	-0.24 / -0.22 / -0.41 / -0.39 / -0.22 / 0.39	0 of 18
GFELNSYGIS	VIYSDGKRTFYADSVK	GRTAGTFDS	-0.22 / -0.49 / -0.05 / 0.02 / -0.37 / 0.33	0 of 18
GFDLNSYGIS	VIYSDGRRTFYGDSVK	GQAAGTFDL	0.36 / -0.45 / 0.48 / -0.05 / -0.36 / 0.40	0 of 18
GFELNSYGIS	VIYSDGRRTFYGDSVK	GTTAGTFDS	0.26 / 0.09 / 0.17 / -0.09 / -0.18 / 0.15	0 of 18
GFDLNSYGIS	VIYSDGRRTFYKDSVK	GNAAGTFDA	0.28 / -0.10 / -0.06 / 0.22 / -0.06 / 0.13	0 of 18

As a blank, each scFv also met three strains without target: over all heavy chain designs, 1% of these pairings were detected, typically at 2.08 and seldom below 0.84. The control count says in how many pairings with the empty strains this scFv gave a signal, with their mean in brackets. Of ten entries with the parent sequence, four were seen in most replicates (averages 0.34 to 2.37), three in one and three in none, so single entries are noisy. A sequence measured in both rounds can read differently, since the two assays cover different ranges.

The measurements come from Li et al. 2023 (doi:10.1038/s41467-023-39022-2) through the FLAb antibody collection.